By UniProt entry, the sequences of proteins in these tests, tags left out. Residues count along the entry.
UniProt Q96RI1, 262-486 limits assumed: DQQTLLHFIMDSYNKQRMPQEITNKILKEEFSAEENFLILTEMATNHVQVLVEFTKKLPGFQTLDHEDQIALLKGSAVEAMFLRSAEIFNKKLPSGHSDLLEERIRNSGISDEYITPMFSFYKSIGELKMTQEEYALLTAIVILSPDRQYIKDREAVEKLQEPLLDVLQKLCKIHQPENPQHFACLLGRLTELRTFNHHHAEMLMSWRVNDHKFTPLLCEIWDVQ

The target in the experiment is FXR (Homo sapiens (Human), UniProt Q96RI1). Nature of the experiment: FXR EC50 (FXR agonist activity reported with each example). In kind it is cell-based. The note with it: read-out: FXR EC50.
One may read the EC50 as the concentration that produces a half-maximal response. In the case of `O=C(O)c1ccc(-c2noc(C34CCC(OCc5c(-c6c(Cl)cccc6Cl)noc5C5CC5)(CC3)C4)n2)cc1`, the EC50 came to 0.71 µM.

`O=C(O)c1cccc(-c2noc(C34CCC(COCc5c(-c6c(Cl)cccc6Cl)noc5C5CC5)(CC3)C4)n2)c1`: the EC50 amounted to 0.31 µM.

For the compound `O=C(O)c1cccc(-c2noc(C34CCC(C=Cc5c(-c6c(Cl)cccc6Cl)noc5C5CC5)(CC3)C4)n2)c1`, the EC50 came out at 5.1 µM.

As to `O=C(O)c1ccc(-c2noc(C34CCC(COCc5c(-c6c(Cl)cccc6Cl)noc5C5CC5)(CC3)C4)n2)cc1`, the EC50 is 2 µM.

In the case of `O=C(O)c1cccc(/C=C/C23CCC(OCc4c(-c5ccccc5C(F)(F)F)noc4C4CC4)(CC2)CC3)c1`, the EC50 turned out to be 0.47 µM.

For the origin of these results see patent publication US10730863B2, “Bridged bicyclic compounds as farnesoid X receptor modulators” (BRISTOL-MYERS SQUIBB COMPANY, priority 2017, dated 2020).
